MmCpn inh – blocks the Methanococcus maripaludis chaperonin Mm-Cpn. purified Mm-Cpn ATPase, ADP Transcreener TR-FRET. actives 0.031% (n = 330,000). AID 504842. Potency, µM (highest dose often 76.9 µM), for inactives: at the top dose activity, negative = inhibition, usual class: inhibitors; active = well fitted inhibition curve with a large enough effect; inconclusive = small, poorly fitted or top-dose-only effect; note: potency is the fitted concentration of half-maximal effect; % is set by controls: 0 for no effect and ±100 for the full control effect; nearly all actives have a fitted effect of over 80% in size
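Purified archaeal chaperonin (25 nM final) was preincubated with compound for 10 min at 37°C, then ATP (10 uM final) was added for 30 min at 37°C in Tris pH 7.4/KCl/MgCl2/DTT buffer. ADP was quantified by HTRF Transcreener TR-FRET.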
Rango release inh – inhibitors of RanGTP-induced Rango-importin beta complex dissociation | Biochemical FRET Rango-importin beta, RanGTP-induced dissociation | Potency, µM (highest dose often 46.1 µM), without a hit: at the highest dose activity change, negative = inhibition | actives 0.071% (n = 340,000) | AID 540253; note: potency is the fitted concentration of half-maximal effect; % of control where 0% means no effect; nearly all actives have a fitted effect of over 45% in size
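Compounds sat 5 min at room temperature with 0.1 uM Rango biosensor plus 0.25 uM importin beta, then FRET pre-read. RanGTP-RCC1 (0.6 uM Ran, 2mM GTP, 0.2 uM RCC1) added for 45 min, and the CFP/YFP post-read measured blocked complex dissociation.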
Rango complex inh – Rango-importin beta binding inhibition; Q14974; Rango CFP/YFP FRET sensor + importin beta, 45 min; Potency, µM (top dose mostly 92.2 µM), for inactives: at the top dose inhibition of complex formation; actives 0.031% (n = 340,000); AID 540263;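 note: potency is the fitted concentration of half-maximal effect; 0% = DMSO wells and 100% = buffer wells lacking importin beta; nearly all actives have a fitted effect of over 15% in size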
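FRET biosensor (snurportin 1 IBB flanked by EYFP and cerulean), 50 nM, with compound 5 min, then 0.125 microM importin beta in PBS, 1 mM DTT, 0.02% Tween-20, 0.1% BSA. CFP/YFP ratio read after 45 min at room temperature; pre-read flags interference.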
CCT chaperon mod – cytosolic chaperonin activity modulation | purified chaperonin ATPase assay, HTRF ADP detection, 30 min | activity change, % (concentration not given with the values), hits read low | actives 0.3% (n = 360,000) | AID 651819; in the data active = activity change below about -30%; note: % is set by controls: 0 for no effect and ±100 for the full control effect
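ATPase activity: ADP formed was measured by HTRF Transcreener (665/615 nm ratio) after 30 min at 37 deg C with 10 uM ATP. Compounds screened at one 76 uM concentration against 40 or 20 nM TRiC in Tris pH 7.4/KCl/MgCl2/DTT buffer.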
Active calls of the source: *; ? = inconclusive; / = not tested or not shown. This is a sample that favours compounds with a hit; in the whole collection about 0.39% have one here. Unless noted, calls come from the whole dose curve.

Codes: A = MmCpn inh; B = Rango release inh; C = Rango complex inh; D = CCT chaperon mod
[1] Cc1nn(CC(=O)N2CCc3ccccc3C2)c(C)c1[N+](=O)[O-]
  A: 1%	B: 0%	C: 1%	D: 0

[2] Cc1nn(CC(=O)N2CCc3ccccc3C2)c(C)c1Cl
  A: 4%	B: -14%	C: 1%	D: -80*

[3] O=C(c1cc2cc(Br)ccc2[nH]1)N1CCc2ccccc21
  A: -4%	B: -1%	C: -2%	D: -38*

[4] O=[N+]([O-])c1ccc2oc(C(O)c3cccc(Cl)c3)cc2c1 (stereo unspecified)
  A: 0%	B: -1%	C: 6%	D: -1

[5] COc1cc(OC)cc(-c2c(-c3cccs3)c3cc(Br)ccc3n2C)c1
  A: -30%	B: 5%	C: ?	D: -1

[6] COc1cc(F)cc(-c2ccc3c(c2)c(-c2cccs2)c(-c2cc(OC)cc(OC)c2)n3C)c1
  A: 22µM*	B: -11%	C: 0%	D: 1

[7] CC1(C(=O)NS(=O)(=O)C2CC2)CCN(C(=O)COCc2ccccc2)C1 (stereo unspecified)
  A: /	B: /	C: /	D: -4

[8] CCOc1ccc(C(=O)CCC(=O)N2CCN(S(=O)(=O)c3cccc(F)c3)CC2)cc1
  A: -1%	B: 17%	C: 0%	D: -49*

[9] COc1ccc(N=NC2=C(O)CC(C)(C)CC2=O)c(OC)c1
  A: 1%	B: 15%	C: 52µM*	D: -6

[10] COc1ccc(N=NC2=C(O)CC(C)(C)CC2=O)cc1
  A: -18%	B: 6%	C: -3%	D: -1

[11] CN(Cc1ccco1)c1ncnc2ccc(-c3cccc(Cl)c3)cc12
  A: 1%	B: /	C: /	D: /

[12] CS(=O)(=O)N1N=C(c2ccc3nccnc3c2)CC1c1ccccc1 (stereo unspecified)
  A: ?	B: -15%	C: 5%	D: -88*

[13] CS(=O)(=O)N1N=C(c2ccccc2)CC1c1ccc2nccnc2c1 (stereo unspecified)
  A: -1%	B: -18%	C: -2%	D: 0

[14] CCC1Sc2ccc(S(=O)(=O)Nc3ccc(OC)c(OC)c3)cc2NC1=O (stereo unspecified)
  A: 2%	B: -4%	C: 3%	D: -35*

[15] COc1ccccc1N1CCN(C(=O)CN(C)S(=O)(=O)c2ccc(C)cc2)CC1
  A: /	B: /	C: /	D: 0

[16] O=C(Nc1c(-c2ccccc2)[nH][nH]c1=O)c1ccco1
  A: /	B: /	C: /	D: 4

[17] COc1cccc2c1C(=O)c1c(O)c3c(c(O)c1C2=O)CC(O)(C(=O)CO)CC3OC1CC(N(C)C)C(O)C(C)O1 (stereo unspecified)
  A: /	B: 20%	C: 58µM*	D: -4

[18] CC(=O)NC1C(=O)N=C(SCC(=O)Nc2ccc(C(F)(F)F)cc2Cl)NC1=O (stereo unspecified)
  A: 1%	B: -26%	C: -2%	D: -53*

[19] COc1ccccc1NC(=O)CSC1=NC(=O)C(NC(C)=O)C(=O)N1 (stereo unspecified)
  A: -1%	B: -3%	C: 0%	D: -7

[20] NS(=O)(=O)c1ccc(CNS(=O)(=O)c2cc(Cl)ccc2Cl)cc1
  A: 2%	B: -8%	C: 0%	D: -38*

[21] CCOC(=O)c1cc(-c2ccccc2)sc1NC(=O)C(C)(C)C
  A: -1%	B: -5%	C: -2%	D: -31*

[22] CCS(=O)(=O)N1Cc2ccccc2CC1C(=O)Nc1ccc(OC)c(OC)c1 (stereo unspecified)
  A: -9%	B: 10%	C: -1%	D: 1

[23] CCS(=O)(=O)N1Cc2ccccc2CC1C(=O)Nc1cccc(OC)c1 (stereo unspecified)
  A: -5%	B: -3%	C: 0%	D: -49*

[24] COc1ccc2sc(-c3ccc(S(C)(=O)=O)cc3)c(C(=O)NCCc3c[nH]c4ccccc34)c2c1
  A: 28µM*	B: -13%	C: 1%	D: 2

[25] COC(=O)c1sc2ccc(C)cc2c1C(=O)OC
  A: /	B: 14%	C: 5%	D: 3

3 compounds out of the list, arranged by length of the SMILES, descending:
Codes: A = MmCpn inh; B = Rango release inh; C = Rango complex inh; D = CCT chaperon mod
[7] CC1(C(=O)NS(=O)(=O)C2CC2)CCN(C(=O)COCc2ccccc2)C1 (stereo unspecified)
  A: /	B: /	C: /	D: -4

[14] CCC1Sc2ccc(S(=O)(=O)Nc3ccc(OC)c(OC)c3)cc2NC1=O (stereo unspecified)
  A: 2%	B: -4%	C: 3%	D: -35*

[16] O=C(Nc1c(-c2ccccc2)[nH][nH]c1=O)c1ccco1
  A: /	B: /	C: /	D: 4

(cont.)
Codes: A = MmCpn inh; B = Rango release inh; C = Rango complex inh; D = CCT chaperon mod
[26] COC(=O)c1c(-c2ccc(OC)cc2)sc2ccc(OC)cc12
  A: 45µM*	B: 1%	C: 3%	D: -4

[27] COC(=O)c1c(-c2ccc(OC)cc2)sc2ccc(-c3ccc4c(c3)OCO4)cc12
  A: -5%	B: 7%	C: 2%	D: -73*

[28] O=C(Nc1ccc(F)cc1)c1ccc(C(=O)N2CCCC(O)C2)cc1 (stereo unspecified)
  A: -2%	B: 0%	C: 0%	D: -12

[29] COC(=O)C(Cc1ccc(O)cc1)NC(=O)Cn1cc(C)c(=O)[nH]c1=O (stereo unspecified)
  A: /	B: -2%	C: 3%	D: 2

[30] N[C@@]12CCc3nonc3[C@]1(O)CC(c1ccccc1)=[N+]2[O-]
  A: 2%	B: -8%	C: -1%	D: -63*

[31] CSc1nc(-c2ccccc2)nn1S(=O)(=O)c1ccccc1
  A: 2%	B: 6%	C: 0%	D: -50*

[32] Cc1cc(C)n(CC(=O)NNC(=O)COc2ccc(Br)cc2F)n1
  A: -1%	B: 7%	C: 4%	D: -1

[33] Cc1ccccc1Nc1n[nH]c(=S)s1
  A: /	B: /	C: /	D: -7

Screening data from PubChem BioAssay.
